{"source": "patent US7462599", "key": {"[1]": {"target": "T1, [Gln^1]-FPP", "T1 chain": "QEP"}, "[2]": {"target": "T2, [Gln^1]-TRH", "T2 chain": "QHP"}}, "data": [{"protein": "recombinant human glutaminyl cyclase (QC, EC 2.3.2.5) (protein) VSPSASAWPEEKNYHQPAILNSSALRQIAEGTSISEMWQNDLQPLLIERYPGSPGSYAARQHIMQRIQRLQADWVLEIDTFLSQTPYGYRSFSNIISTLNPTAKRHLVLACHYDSKYFSHWNNRVFVGATDSAVPCAMMLELARALDKKLLSLKTVSDSKPDLSLQLIFFDGEEAFLHWSPQDSLYGSRHLAAKMASTPHPPGARGTSQLHGMDLLVLLDLIGAPNPTFPNFFPNSARWFERLQAIEHELHELGLLKDHSLEGRYFQNYSYGGVIQDDHIPFLRRGVPVLHLIPSPFPEVWHTMDDNEENLDESTIDNLNKILQVFVLEYLHL", "values": [{"measurement": "KM (substrate conversion by QC)", "setting": "[1]", "result": 87, "unit": "µM"}, {"measurement": "KM (substrate conversion by QC)", "setting": "[2]", "result": 90, "unit": "µM"}]}]}
